Test results taken from ChEMBL document CHEMBL1128221 (J Med Chem, 1995).

How the values were obtained:
LoVo [1] = test: Cytotoxicity against colorectal tumor cell line LoVo 1 hour after incubation.; format: functional, cell-based, Homo sapiens
How it was run: (§1)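 LoVo colorectal cells (2.5 × 10^3/well) were exposed to a range of prodrug or parent drug concentrations for 1 h, then washed. The cells were grown a further 3 days at 37 °C, fixed, and stained with sulforhodamine B to measure cellular protein. Treated wells were compared with untreated controls to give IC50. The ratio is prodrug IC50 over drug IC50.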

[2] = Half life was reported; format: ADME
How it was run: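 Hydrolysis of the chloroethyl mustard groups was measured in phosphate buffer, pH 7.4, at 37 °C. Products were separated by HPLC on a 25 cm ODS column. t1/2 was calculated with a standard kinetic program. The method was not applied to bromo, iodo or mesyl mustards.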

LoVo [3] = test: Ratio of IC50 (prodrug)/IC50 (drug); format: functional, Homo sapiens; how it was run: as §1

Question: Which IC50 (LoVo [1]) does the source give for `Oc1ccc(N(CCBr)CCBr)c(F)c1` here?
Answer: 1340 nM

Question: Which IC50 (LoVo [1]) does the source give for `Nc1ccc(N(CCBr)CCBr)c(F)c1` here?
Answer: 4920 nM

Question: Which results are given for `Cc1cc(N(CCCl)CCCl)ccc1O`?
Answer: T1/2 [2]: 4 min; IC50 (LoVo [1]): 2250 nM; Ratio (LoVo [3]): 194

Question: For `N#Cc1cc(N)ccc1N(CCCl)CCCl`, which T1/2 [2] is on record?
Answer: 18 min

Question: What about the IC50 (LoVo [1]) of the same compound?
Answer: 9750 nM

Question: What about the Ratio (LoVo [3]) of the same compound?
Answer: 51.3

Question: Which results are given for `Oc1ccc(N(CCCl)CCCl)c2c1CCCC2`?
Answer: T1/2 [2]: 0.9 min; IC50 (LoVo [1]): 490 nM; Ratio (LoVo [3]): 14.7

Question: For `Nc1ccc(N(CCCl)CCCl)c(Cl)c1`, which T1/2 [2] is on record?
Answer: 1.1 min

Question: What about the IC50 (LoVo [1]) of the same compound?
Answer: 1780 nM

Question: What about the Ratio (LoVo [3]) of the same compound?
Answer: 89.9

Question: For `Cc1cc(O)ccc1N(CCCl)CCCl`, which T1/2 [2] is on record?
Answer: 0.6 min

Question: And the IC50 (LoVo [1])?
Answer: 750 nM

Question: What about the Ratio (LoVo [3]) of the same compound?
Answer: 154

Question: Which T1/2 [2] does the source give for `Oc1ccc(N(CCCl)CCCl)cc1Cl` here?
Answer: 12 min

Question: What about the IC50 (LoVo [1]) of the same compound?
Answer: 7310 nM

Question: What about the Ratio (LoVo [3]) of the same compound?
Answer: 11.9

Question: Which IC50 (LoVo [1]) does the source give for `Oc1ccc(N(CCBr)CCBr)cc1` here?
Answer: 400 nM

Question: And the Ratio (LoVo [3])?
Answer: 23.5

Question: Which T1/2 [2] does the source give for `Oc1ccc(N(CCCl)CCCl)c(F)c1` here?
Answer: 5.6 min

Question: And the IC50 (LoVo [1])?
Answer: 2550 nM

Question: And the Ratio (LoVo [3])?
Answer: 21

Question: Which results are given for `Nc1ccc(N(CCCl)CCCl)c(F)c1`?
Answer: T1/2 [2]: 2.2 min; IC50 (LoVo [1]): 2560 nM; Ratio (LoVo [3]): > 195

Question: Which IC50 (LoVo [1]) does the source give for `Oc1ccc(N(CCI)CCI)cc1` here?
Answer: 340 nM

Question: With `CC(C)c1cc(O)ccc1N(CCCl)CCCl` as the compound, how does the T1/2 [2] read?
Answer: 0.7 min

Question: What about the IC50 (LoVo [1]) of the same compound?
Answer: 1120 nM

Question: And the Ratio (LoVo [3])?
Answer: 32.8

Question: With `Oc1ccc(N(CCI)CCI)c(F)c1` as the compound, how does the IC50 (LoVo [1]) read?
Answer: 740 nM
